Experimental data taken from ChEMBL document CHEMBL1125325, “Orally active, nonpeptide oxytocin antagonists” (J Med Chem, 1992).

Target: T1, Oxytocin receptor (Rattus norvegicus, UniProt P70536)
T1 sequence (P70536 whole entry): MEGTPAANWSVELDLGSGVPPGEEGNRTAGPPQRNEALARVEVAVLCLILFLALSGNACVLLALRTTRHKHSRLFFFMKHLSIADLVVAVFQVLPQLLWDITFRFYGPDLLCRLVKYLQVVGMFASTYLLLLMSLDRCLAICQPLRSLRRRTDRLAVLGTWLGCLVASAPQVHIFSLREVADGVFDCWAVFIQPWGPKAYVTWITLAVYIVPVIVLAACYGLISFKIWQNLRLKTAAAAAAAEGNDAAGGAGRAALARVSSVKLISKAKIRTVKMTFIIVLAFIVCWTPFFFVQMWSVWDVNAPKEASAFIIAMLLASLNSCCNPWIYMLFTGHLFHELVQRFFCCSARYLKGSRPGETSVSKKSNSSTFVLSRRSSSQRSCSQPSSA
Assay: Half-maximal inhibition of binding of [3H]oxytocin to OT receptor in rat uterine tissue
In short: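 Competition binding on rat uterine tissue, with [3H]OT as radioligand. IC50 is the compound concentration, in μM, giving half-maximal inhibition of [3H]OT binding. Method follows an earlier report.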

SMILES: Cc1ccc(S(=O)(=O)N2CCC3(C=Cc4ccccc43)CC2)cc1
- IC50: 4 µM
